Source: BindingDB's records for 26043948

Target: Acetylcholinesterase (Homo sapiens, UniProt P22303)

## Cc1ccc(-c2csc(NC(=O)C[n+]3cccc(/C=N/O)c3)n2)cc1
  Kd: 146 µM
